Assay results reported in patent US20090163571A1, “PHARMACEUTICAL FOR USE IN THE TREATMENT OF URETEROLITHIASIS” (KISSEI PHARMACEUTICAL CO., LTD, priority 2005, published 2009).

Tested on: isolated hamster ureter
Assay: Inhibition of phenylephrine-induced contraction of isolated hamster ureter (organ bath)
Settings: against phenylephrine concentration-response curve

For `CN(CCCl)Cc1cc(Cl)c(NC2=NCCN2)c(Cl)c1`, the pA2 was less than 5.
